Screening data from PubChem.
E-sel inducer: E-selectin induction on HUVECs. P16581. HUVEC E-selectin immunofluorescence imaging; normalized: neutral wells 0, TNF-alpha wells 100. activation, % at 7.58 µM. actives 0.37% (n = 260,000). AID 686992;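 active means mean E-selectin-positive cell signal at least 10% of the positive control, reached in at least 60% of replicates, without over 20% cell loss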
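Read-out basis: % PE-positive cells; Test system: HUVEC primary endothelial cells; Technique: immunofluorescence imaging; Dosing: single-point compound dose.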
PglD DTNB: inhibitors of Campylobacter jejuni PglD acetyltransferase; purified PglD enzyme, DTNB colorimetric CoA detection; inhibition, % at 12.5 µM; actives 0.098% (n = 360,000); AID 602405; in the data active means inhibition above about 16%, passing the limit was not always enough
PGC1a acetyl inh: lowers PGC1a acetylation signal in U2OS cells; AlphaScreen anti-acetyl-lysine; with virally co-expressed GCN5 acetyltransferase; inhibition, % at 15.6 µM; actives 0.17% (n = 350,000);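 active means every replicate shows inhibition of at least 40%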;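 further: 0% = neutral control wells and 100% = positive control wells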
Yeast UUG start: yeast start codon fidelity modulation; AID 602363; activity score, % at 18.7 µM; S. cerevisiae UUG-firefly luciferase reporter, luminescence/redox ratio; 0.13% of 350,000 active;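 active means replicate mean at a twofold rise or more, about +100% in these data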;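 further: firefly luciferase made from a UUG start codon reports start codon fidelity; reporter light over untreated wells divided by growth signal over untreated wells; some hits fall short of that in this replicate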
esBAF inh: SWI/SNF esBAF complex inhibition; mouse ES cells, Bmi1-luciferase knock-in reporter, 24 h; 100% = twice the neutral-well signal; reporter increase, % at 12.5 µM; actives 2% (n = 350,000); AID 602393; in the data active means activation above about 40%;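 further: 0% = median of the plate's neutral control wells and 100% = double that signal; a rise in the Bmi1 reporter signal indicates esBAF inhibition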
Statin myotox sup: protects C2C12 myotubes from simvastatin toxicity; AID 602340; rescue of ATP level, % at 7.49 µM; actives 0.78% (n = 330,000); ATP luminescence, 48 h; scaled: DMSO 0, geranylgeraniol control 100;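 active means mean ATP rescue above about 67%, or every replicate alone reaching that limit, limit read from the data, passing the limit was not always enough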;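 further: myotubes were challenged with 10 µM simvastatin during compound exposure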
An asterisk follows results filed as active; nt = no result; ! = a repeat was not active. Hits are enriched below; roughly 2.8% of the tested compounds scored in any of these assays.

1) Cc1ccc(/C=C/C(=O)Nc2nccs2)o1
2) Cc1ccc(/C=C/C(=O)Nc2ccc(N(C)C)cc2)o1
3) CC(C)C#Cc1ccc2c(c1)O[C@@H](CN(C)C(=O)c1cnccn1)[C@H](C)CN([C@H](C)CO)S2(=O)=O
4) Cc1ccc2c(c1)C1(C(=O)N2)N2CCCC2C(C(=O)c2ccc3ccccc3c2)C12C(=O)Nc1ccccc12 (configuration not stated)
5) C[C@H]1CN([C@@H](C)CO)C(=O)CCCn2cc(nn2)CO[C@H]1CN(C)Cc1ccccc1C(F)(F)F
6) Cc1ccc(N/N=C2\CS(=O)(=O)N(C)c3ccsc32)cc1
Screen / compound no.	1	2	3	4	5	6
E-sel inducer	nt	0	3	4	0	0
PglD DTNB	-3	3	1	-1	1	19
PGC1a acetyl inh	15	nt	-1	3	-11	-4
Yeast UUG start	-19	9	-12	-2	nt	-12
esBAF inh	60*	52*	11	50*!	2	59*
Statin myotox sup	6	2	-26	-2	-12	0

7) CCCC(=O)N/N=C1\CS(=O)(=O)N(C)c2ccsc21
8) CN1c2ccsc2/C(=N/Nc2ccc(F)cc2)CS1(=O)=O
9) CC=Cc1ccc2n(c1=O)C[C@@H]1[C@@H](CO)[C@H](C(=O)NC3CCC3)N(S(C)(=O)=O)[C@H]21 (mixture of isomers)
10) COc1ccccc1-c1ccc([C@H]2[C@@H](CO)N(C(=O)C3CCCC3)[C@H]2C#N)cc1
11) O=C(Nc1cccnc1)c1cc(-c2cc(Cl)ccc2O)n[nH]1
12) Cc1ccc(N2C(=O)c3ccc(C(=O)Nc4cccnc4)cc3C2=O)c(C)c1
Screen / compound no.	7	8	9	10	11	12
E-sel inducer	nt	nt	1	0	4	nt
PglD DTNB	8	0	-3	nt	nt	-4
PGC1a acetyl inh	-2	2	10	9	-1	17
Yeast UUG start	-9	-22	nt	nt	nt	-15
esBAF inh	-1	64*	0	nt	nt	21
Statin myotox sup	-2	-6	17	nt	nt	90*

13) CC(=O)Nc1ccc(NC(=O)c2cc(-c3ccc(F)cc3C)n[nH]2)cc1
14) Cc1ccc(-c2cc(C(=O)Nc3cc(C)ccc3C)[nH]n2)c(O)c1
15) Cc1ccc(O)c(-c2cc(C(=O)Nc3cccnc3)[nH]n2)c1
16) Cc1ccc(C)c(NC(=O)c2cc(-c3ccccc3O)n[nH]2)c1
17) C[C@H](CO)N1C[C@H](C)[C@H](CN(C)C(=O)c2ccc3c(c2)OCO3)Oc2ncc(C3=CCCCC3)cc2C1=O
18) C[C@@H]1CN([C@@H](C)CO)C(=O)c2cc(NS(=O)(=O)c3cccs3)ccc2O[C@@H](C)CCCCO[C@@H]1CN(C)C(=O)Nc1ccc(F)cc1
Screen / compound no.	13	14	15	16	17	18
E-sel inducer	0	nt	-6	nt	0	0
PglD DTNB	-2	-3	-3	3	4	nt
PGC1a acetyl inh	1	-6	-6	0	1	0
Yeast UUG start	-14	-11	-11	-16	-2	nt
esBAF inh	61*	31	87*	65*	-2	nt
Statin myotox sup	-8	55	-22	-43	7	nt

19) C[C@H](CO)N1C[C@H](C)[C@@H](CN(C)C(=O)C2CCC2)Oc2ncc(-c3cccc(C#N)c3)cc2C1=O
20) Cc1cccc(NC(=O)c2cc(-c3ccc(C)c(C)c3O)n[nH]2)c1
21) COc1ccc2c3c([nH]c2c1)[C@@H](CO)N(C(=O)C1CCC1)CC31CCN(Cc2cccc(F)c2)CC1
22) CSc1cccc(NC(=O)C2CCCN(S(=O)(=O)c3ccc(F)cc3)C2)c1 (configuration not stated)
23) O=C(C1CCCN(S(=O)(=O)c2ccc(F)cc2)C1)N1CCOCC1 (configuration not stated)
24) O=C(Nc1cccc(Cl)c1)C1CCCN(S(=O)(=O)c2ccc(F)cc2)C1 (configuration not stated)
Screen / compound no.	19	20	21	22	23	24
E-sel inducer	1	1	1	nt	nt	nt
PglD DTNB	-4	-9	nt	-4	-1	4
PGC1a acetyl inh	-4	-5	nt	-12	-17	-11
Yeast UUG start	-12	-16	nt	5	-19	13
esBAF inh	-5	43*	nt	5	55*	2
Statin myotox sup	-16	-15	nt	nt	-6	125*

25) O=C(Nc1ccc2c3c(cccc13)CC2)c1ccccc1
26) CC(=O)Nc1ccc2c3c(cccc13)CC2
27) COc1ccc2ccccc2c1/C=N/Nc1cccc(C(=O)O)c1
28) COc1ccc(/C=C/C(=O)Oc2ccc(/C=N/NC(=O)c3ccccc3)cc2)cc1OC
29) COc1cc(C=NNc2ccccc2)ccc1OC(=O)c1ccccc1
30) COc1ccc2ccccc2c1/C=N/Nc1ccc(Cl)c(C(=O)O)c1
Screen / compound no.	25	26	27	28	29	30
E-sel inducer	nt	nt	nt	nt	nt	nt
PglD DTNB	0	-4	-2	-13	8	-3
PGC1a acetyl inh	-1	3	5	-9	nt	nt
Yeast UUG start	-37	-21	3	-13	-17	-19
esBAF inh	48*	-3	66*	47*	41*	6
Statin myotox sup	-7	5	0	-2	60	-12

Brought forward from above: 3 compounds, followed by the next part.
28) COc1ccc(/C=C/C(=O)Oc2ccc(/C=N/NC(=O)c3ccccc3)cc2)cc1OC
29) COc1cc(C=NNc2ccccc2)ccc1OC(=O)c1ccccc1
30) COc1ccc2ccccc2c1/C=N/Nc1ccc(Cl)c(C(=O)O)c1
31) COc1ccc(-c2ccc3c(c2)[C@@H]2[C@@H](CCN2C(=O)c2ccc4c(c2)OCO4)[C@@H](CO)N3C)cc1
32) C[C@H](CO)N1C[C@H](C)[C@@H](CN(C)S(=O)(=O)c2cccs2)Oc2ccc(NC(=O)Nc3ccc4c(c3)OCO4)cc2CC1=O
33) Cc1c(/C(O)=C2\C(=O)C(=O)N(CCN(C)C)C2c2cccnc2)cnn1-c1ccccc1 (configuration not stated)
34) Cc1c(/C(O)=C2\C(=O)C(=O)N(CCCN(C)C)C2c2ccccc2)cnn1-c1ccccc1 (configuration not stated)
35) Cc1ccc(CN2CCC(C(=O)NCCC(C)C)CC2)o1
36) CC(C)CCNC(=O)C1CCN(c2nc3ccccc3o2)CC1
Screen / compound no.	28	29	30	31	32	33	34	35	36
E-sel inducer	nt	nt	nt	0	-2	nt	4	nt	nt
PglD DTNB	-13	8	-3	4	0	1	nt	2	1
PGC1a acetyl inh	-9	nt	nt	-4	0	-2	82*	-8	0
Yeast UUG start	-13	-17	-19	-15	-19	-17	nt	-34	0
esBAF inh	47*	41*	6	1	-1	2	-23	5	8
Statin myotox sup	-2	60	-12	22	-109	17	-9	109*	25

37) CC=Cc1ccc2n(c1=O)C[C@H]1[C@H](CO)[C@@H](C(=O)N[C@@H](C)c3ccccc3)[C@@H]2N1CC1CC1 (mixture of isomers)
38) C[C@H](CO)N1C[C@H](C)[C@@H](CN(C)C(=O)NC2CCCCC2)Oc2ccc(NC(=O)Cc3cn(C)c4ccccc34)cc2C1=O
39) CCCNC(=O)N1C[C@H](C)[C@H](OC)CN(C)C(=O)c2cc(NC(=O)C3CCC3)ccc2OC[C@H]1C
40) CN(C)CCN(C(=O)c1ccc2ccccc2c1)c1nc2c(F)cccc2s1
41) CC(=O)OC[C@]12CC[C@H]3[C@@](C)(CC[C@H]4C(C)(C)CCC[C@]34C)[C@@H]1CC(C1=CC(=O)OC1O)O2 (some centres not stated)
42) COC(=O)C[C@@H]1CC[C@H]2[C@H](COc3ccc(NS(=O)(=O)c4ccccc4Cl)cc3C(=O)N2C)O1
Screen / compound no.	37	38	39	40	41	42
E-sel inducer	0	nt	0	nt	nt	0
PglD DTNB	-3	1	nt	3	6	8
PGC1a acetyl inh	nt	-3	13	0	87*	nt
Yeast UUG start	nt	-2	nt	-16	23	nt
esBAF inh	9	0	-4	0	-86	1
Statin myotox sup	18	-9	-3	120*	-303	2
